{"sequences": {"note": "By UniProt entry, the sequences of proteins in these tests, tags left out.", "UniProt P33261, whole entry, looked up": "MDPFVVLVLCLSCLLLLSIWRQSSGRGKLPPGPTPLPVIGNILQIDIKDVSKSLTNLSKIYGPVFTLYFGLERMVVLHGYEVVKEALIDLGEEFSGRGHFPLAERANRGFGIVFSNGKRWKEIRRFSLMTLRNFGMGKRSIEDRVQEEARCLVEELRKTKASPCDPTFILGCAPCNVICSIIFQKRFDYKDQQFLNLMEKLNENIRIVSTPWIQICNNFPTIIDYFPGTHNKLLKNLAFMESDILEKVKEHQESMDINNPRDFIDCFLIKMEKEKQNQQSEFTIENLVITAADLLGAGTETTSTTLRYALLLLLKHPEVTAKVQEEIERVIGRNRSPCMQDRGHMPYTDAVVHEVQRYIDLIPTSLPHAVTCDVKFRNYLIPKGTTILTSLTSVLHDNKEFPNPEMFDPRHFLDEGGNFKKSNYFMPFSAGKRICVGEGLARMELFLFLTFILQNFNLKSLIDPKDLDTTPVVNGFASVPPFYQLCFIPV"}, "source": "PubChem BioAssay AID1851", "about": "(National Center for Advancing Translational Sciences (NCATS), 2009)", "note": "Values joined by “and” are separate entries in the source; they are usually repeats but may differ in a detail not shown here. Identical values can stand only once. Shown are results outside the selection of hits, which stands elsewhere. Inconclusive results are not listed. Active and inactive are the calls of the source. Calls follow the shape of the dose curve; as a rule, active = well fitted curve in the direction sought with a large enough effect; inconclusive = small, poorly fitted or top-dose-only effect, or effect the other way; inactive = no such curve, though single readings can be large or run the other way. % is scaled to controls: 0 for no effect and ±100 for the full control effect."}
{"target": "Cytochrome P450 2C19 (Homo sapiens) (UniProt P33261)", "experiment": "Cytochrome panel assay with activity outcomes", "conditions": "recombinant CYP, pro-luciferin dealkylation, luminescence, p450-cyp2c19; series mostly up to 57.1 µM; activity, negative = inhibition: at the top concentration"}
{"smiles": "COCCn1c(=O)c(-c2cccc(C#N)c2)nc2cnc(Nc3ccccc3)nc21", "activity, negative = inhibition": "inactive: -12.6%"}
{"smiles": "COc1ccccc1CN1CCC2(CC1)CCN(C(=O)c1csnn1)CC2", "activity, negative = inhibition": "inactive: -19.6%"}
{"smiles": "O=C(c1cnccn1)N1CCC2(CCCN(c3ccc(-c4ccccc4)cc3)C2)CC1", "activity, negative = inhibition": "inactive: -25.9%"}
{"smiles": "O=C(c1csnn1)N1CCC[C@@]2(CCN(c3ncccn3)C2)C1", "activity, negative = inhibition": "inactive: -34.8%"}
{"smiles": "Cc1nc2cnc(Nc3ccccc3)nc2n(CCC#N)c1=O", "activity, negative = inhibition": "inactive: -5.8%"}
{"smiles": "N#Cc1ccc(CN2CCC3(CC2)CCN(C(=O)c2csnn2)CC3)cc1", "activity, negative = inhibition": "inactive: -10.3%"}
{"smiles": "COC(=O)N1CCC2(CC1)CN(c1cccc(-c3ccccc3)c1)C2", "activity, negative = inhibition": "inactive: 25.4%"}
{"smiles": "O=C(c1csnn1)N1CCC2(CCCN(Cc3cc(C(F)(F)F)cc(C(F)(F)F)c3)C2)CC1", "activity, negative = inhibition": "inactive: -32%"}
{"smiles": "O=C(c1csnn1)N1CCC2(CC1)CCN(c1ncccn1)CC2", "activity, negative = inhibition": "inactive: -4.09%"}
{"smiles": "CC(C)NC(=O)N1CCC2(CC1)CCN(C(=O)c1csnn1)CC2", "activity, negative = inhibition": "inactive: 0.36%"}
{"smiles": "O=C(c1csnn1)N1CCC2(CC1)CCN(C(c1ccccc1)c1ccccc1)CC2", "activity, negative = inhibition": "inactive: 16.9%"}
{"smiles": "O=C(c1cnccn1)N1CCC[C@@]2(CCN(Cc3nccs3)C2)C1", "activity, negative = inhibition": "inactive: -7.38%"}
{"smiles": "COc1ccc(NC(=O)N2CC[C@@]3(CCCN(C(=O)c4csnn4)C3)C2)cc1", "activity, negative = inhibition": "inactive: 38.8%"}
{"smiles": "CCN(CC)C(=S)SSC(=S)N(CC)CC", "AC50": "active: 5.01 µM and active: 794 nM"}
{"smiles": "COc1cccc(Nc2ncc3ncc(=O)n(CCc4ccccc4)c3n2)c1", "activity, negative = inhibition": "inactive: -21.1%"}
{"smiles": "O=C(c1csnn1)N1CCC[C@@]2(CCN(c3ccncc3)C2)C1", "activity, negative = inhibition": "inactive: -38.9%"}
{"smiles": "COc1ccc(-n2c(=O)c(-c3cccs3)nc3cnc(Nc4ccccc4)nc32)cc1", "activity, negative = inhibition": "inactive: 14.4%"}
{"smiles": "O=C(c1cnccn1)N1CCC[C@@]2(CCN(c3ccccc3)C2)C1", "activity, negative = inhibition": "inactive: -37.1%"}
{"smiles": "COCCn1c(=O)c(-c2ccc(F)cc2)nc2cnc(Nc3cccc(OC)c3)nc21", "activity, negative = inhibition": "inactive: 2.57%"}
{"smiles": "COc1cccc(Nc2ncc3nc(C)c(=O)n(C)c3n2)c1", "activity, negative = inhibition": "inactive: -16.9%"}
{"smiles": "Cc1nc2cnc(Nc3ccccc3)nc2n(C2CC2)c1=O", "activity, negative = inhibition": "inactive: 12.1%"}
{"smiles": "CC(C)CN1CC[C@@]2(CCCN(C(=O)c3cnccn3)C2)C1", "activity, negative = inhibition": "inactive: 10.8%"}
